Measurements from PubChem BioAssay AID1645870 (National Center for Advancing Translational Sciences (NCATS), 2021).
In all, about 59,000 compounds went through this assay and about 1,500 (2.5%) were called active. All entries are inconclusive by the source's own rule. Clear calls are listed elsewhere. Calls come from the whole dose curve; as a rule, active = well fitted inhibition curve with a large enough effect; inconclusive = small, poorly fitted or top-dose-only effect; inactive = flat fitted curve, though single readings scatter.

By UniProt entry, the sequences of proteins in these tests, tags left out. Where a name states a change or a piece, a line headed by the entry shows the natural chain unless it says otherwise.
UniProt Q9BV86: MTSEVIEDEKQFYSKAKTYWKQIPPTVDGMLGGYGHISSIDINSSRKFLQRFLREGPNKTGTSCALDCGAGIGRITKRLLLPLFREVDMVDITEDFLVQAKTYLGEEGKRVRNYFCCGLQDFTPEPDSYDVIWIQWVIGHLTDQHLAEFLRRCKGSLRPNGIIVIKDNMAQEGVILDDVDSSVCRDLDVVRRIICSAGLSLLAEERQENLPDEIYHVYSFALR

The compounds below were run against N-terminal Xaa-Pro-Lys N-methyltransferase 1 (Homo sapiens) (UniProt Q9BV86) (assay: Primary qHTS for Inhibitors of N-terminal methyltransferase 1 (NTMT1): MTaseGlo Assay). Conditions: NTMT1 MTase-Glo SAH luminescence, purified enzyme.
Excerpt: Assay Submitter (PI): Rong Huang Ph.D.
Purdue University, West Lafayette, IN 47907
The N-terminal methytransferase 1 is the first methyltransferase that methylates protein alpha-N-amines and plays an important role in regulating cell mitosis, chromatin interactions and DNA repair. It is observed to be over-expressed in various cancer patient tissues like malignant melanoma and colorectal cancer tissues. Knockdown of NTMT1 in cancer cells causes cell mitotic defects and enhances sensitivity to DNA damaging chemotherapeutics. […] These critical cellular processes in which NTMT1 is implicated, coupled with emerging links to cellular dysfunction, strengthen the inference that NTMT1 is a compelling novel anticancer target. Progress have been made in understanding the molecular properties of NTMT1 and the biological consequences of protein alpha-N-terminal methylation, but there are no specific small molecule probes available for NTMT1 to fully characterize its MTase activity. To address this unmet need, a panel of assay is created and established to enable quantitative high-throughput screening (qHTS) for novel, potent, and selective small molecule NTMT1 inhibitors. Two orthogonal qHTS that use different reagents (ThioGlo vs. MTaseGlo) are developed for primary robotic screening against the NCATS chemical library of more than 400,000 small molecules. Identified inhibitors are reacquired, validated, and further characterized.
MTaseGlo Assay is a luminescence screen that measure the activity of methyltransferases based on the reaction product S-adenosyl homocysteine (SAH). The substrate SAM is converted to SAH upon enzyme activation. MTase-Glo reagent and detection solution convert SAH to ATP and measure the light from the luciferase reaction.
Materials: NTMT1 enzyme, substrate SPKRIA, control peptide RCC1-6 is provided by the Huang laboratory. […]
8; Reagent; 5 uL; Dispense 5 uL of 1x MTase-Glo Detection Solution (R) to allow for ADP to be converted to ATP which was then detected with a luciferase reaction. […]
11; Detection; Luminescence; Plates were read on ViewLux detector (PerkinElmer). […]
Note: nearly all actives have a fitted effect of over 65% in size.
Potency is the fitted concentration of half-maximal effect.

Row | Structure (SMILES) | Potency
1 | O=C(O[C@H]1CN2CCC1CC2)C1NCc2ccccc2[C@@H]1c1ccccc1 (stereo partly drawn) | inconclusive: 44.7 µM
2 | Cc1cc([N+](=O)[O-])cc([N+](=O)[O-])c1O | inconclusive: 25.1 µM
3 | N#Cc1c(-c2ccc(-c3no[n+]([O-])c3C#N)cc2)no[n+]1[O-] | inconclusive: 17.8 µM
